Source: PubChem
Sampled rows, rich in hits. Any-hit rate of the full collection: about 1.2%.
miR-122 sensor: blocks miR-122 activity in Huh7 sensor cells. Huh7 miR-122 Renilla luciferase sensor, 48 h; neutral wells = 0, positive control = 100. activation (reporter increase), % at 12.5 µM. actives 0.3% (n = 340,000). AID 602342;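 active = mean replicate activation score at least 90 and every replicate individually at or above 90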;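 also: higher luciferase means less miR-122 activity so hits act as miR-122 inhibitors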
Yeast UUG start: modulators of yeast start codon fidelity, primary screen, whole organism, S. cerevisiae, single point, plate reader | AID 602363, 2012 | S. cerevisiae UUG-firefly luciferase reporter, luminescence/redox ratio | activity score, % at 18.7 µM | hit rate 0.13% among 350,000;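 active = replicate mean at a twofold rise or more, about +100% in these data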;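 also: firefly luciferase made from a UUG start codon reports start codon fidelity; reporter light over untreated wells divided by growth signal over untreated wells; some hits fall short of that in this replicate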
Statin myotox sup: protects C2C12 myotubes from simvastatin toxicity | ATP luminescence, 48 h; scaled: DMSO 0, geranylgeraniol control 100 | rescue of ATP level, % at 7.49 µM | actives 0.78% (n = 330,000) | AID 602340;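 active = mean ATP rescue above about 67%, or every replicate alone reaching that limit, limit read from the data, passing the limit was not always enough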;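 also: myotubes were challenged with 10 µM simvastatin during compound exposure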
Cneo AK release: Cryptococcus neoformans lysis via adenylate kinase release; C. neoformans lysis, adenylate kinase release luminescence, 4 h; normalised: neutral wells 0, clomiphene wells 100; lysis activity, % at 15 µM; actives 0.2% (n = 360,000); AID 651654;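 active = mean lysis activity across replicates of at least 80%, whatever share of replicates individually reach that level; inactive = mean lysis activity below 80%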
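Test system: log-phase Cryptococcus neoformans yeast cells; Quantity: yeast cell density of 5 × 10^6 cells/mL; Buffer or medium: YPD; Doses: single compound concentration per well; Timing: 4 h at 37 °C static, read 1 h later; Measured by: AK luminescence; Read-out basis: lysis from increased AK signal; Control set: Clomiphene as positive control.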
Numbers without * were called inactive; ! = repeats disagree; [ ] = another dose, or the depositor's remark.

Start of the data: the first 2 entries, to show the layout:
`CN1c2ccc(-c3ccc(F)cc3)cc2[C@H]2[C@H](CCN2C(=O)c2ccncc2)[C@H]1CO` gave miR-122 sensor 32.0[16.7 µM], Yeast UUG start -7.5, Statin myotox sup -4.9 and Cneo AK release -1.2.
`COc1ccc(C[C@H]2CCc3cnnn3COC[C@H](Cc3ccccc3)NC2=O)cc1` gave Cneo AK release -0.8.

All compounds of this part, from the first entry:
`CN1c2ccc(-c3ccc(F)cc3)cc2[C@H]2[C@H](CCN2C(=O)c2ccncc2)[C@H]1CO` gave miR-122 sensor 32.0[16.7 µM], Yeast UUG start -7.5, Statin myotox sup -4.9 and Cneo AK release -1.2.
`COc1ccc(C[C@H]2CCc3cnnn3COC[C@H](Cc3ccccc3)NC2=O)cc1` gave Cneo AK release -0.8.
Screening COc1ccccc1N1CCN(C(=O)Cn2c(=O)[nH]c3ccsc3c2=O)CC1 returned miR-122 sensor -17.1, Yeast UUG start -0.9, Statin myotox sup -2.6 and Cneo AK release -2.0.
COc1ccccc1N1CCN(C(=O)c2ccc(Cn3c(=O)[nH]c4ccsc4c3=O)cc2)CC1 was read as miR-122 sensor 118.5*, Yeast UUG start 11.3 and Cneo AK release -0.5.
For O=C(C[C@H]1CC[C@H]2NC[C@@H](O)COC[C@@H]2O1)Nc1ccccc1 the results were miR-122 sensor -2.1[16.7 µM], Yeast UUG start -0.8, Statin myotox sup -13.6 and Cneo AK release -1.1.
Screening O=C(c1cccs1)N(Cc1nc2sc3c(c2c(=O)[nH]1)CCCC3)C1CCCC1 returned miR-122 sensor 7.3, Yeast UUG start -24.7, Statin myotox sup 22.3 and Cneo AK release 3.3.
Screening Cc1sc2nc(CN(C(=O)c3cccs3)C3CCCC3)[nH]c(=O)c2c1C returned miR-122 sensor 11.4, Yeast UUG start -2.0, Statin myotox sup 148.2* and Cneo AK release -0.2.
For CO[C@H]1CN(C)C(=O)c2cc(NC(=O)C3CCCC3)ccc2OC[C@H](C)N(CC2CC2)C[C@H]1C the results were Yeast UUG start -3.4, Statin myotox sup -1.6 and Cneo AK release -4.9.
`Cc1cc(NC(=O)COC(=O)C2CCN(S(=O)(=O)c3c(Cl)cccc3Cl)CC2)no1` gave miR-122 sensor 6.0, Yeast UUG start 8.0, Statin myotox sup 108.7* and Cneo AK release 1.3.
For Cc1cc(NC(=O)COC(=O)C2CCN(S(=O)(=O)c3ccc(Cl)cc3)CC2)no1 the results were miR-122 sensor 1.9, Yeast UUG start -2.0 and Cneo AK release 4.9.
For CCOc1ccc2nc(N3CCCC(C(=O)N4CCN(CC)CC4)C3)sc2c1 (centres undefined) the results were miR-122 sensor 1.8, Yeast UUG start -7.9, Statin myotox sup 116.3* and Cneo AK release -3.0.
For COCC(=O)Nc1ccc2c(c1)OC[C@H](C)N(Cc1cccnc1)C[C@H](C)[C@H](OC)CN(C)C2=O the results were Statin myotox sup -0.4 and Cneo AK release 1.3.
`CCOc1ccc(NCc2cccn2-c2nnc(N3CCC(C(=O)NCCCN4CCCCC4C)CC3)s2)cc1` (centres undefined) gave miR-122 sensor 5.4, Yeast UUG start -12.9, Statin myotox sup 17.3 and Cneo AK release 1.9.
For CCOc1ccc(NCc2cccn2-c2nnc(N3CCC(C(=O)NCCCN4C(C)CCCC4C)CC3)s2)cc1 (centres undefined) the results were miR-122 sensor 2.6, Yeast UUG start -15.1, Statin myotox sup 102.5* and Cneo AK release 11.6.
For C[C@H](CO)N1C[C@H](C)[C@@H](CN(C)Cc2ccc(Cl)c(Cl)c2)Oc2c(NC(=O)c3ccncc3)cccc2C1=O the results were miR-122 sensor 106.1*![16.7 µM], Yeast UUG start 4.5, Statin myotox sup 13.7 and Cneo AK release 1.8.
`C[C@@H]1CN([C@@H](C)CO)C(=O)c2cccc(NC(=O)c3ccncc3)c2O[C@@H]1CN(C)CC1CCCCC1` gave miR-122 sensor -0.6[16.7 µM], Yeast UUG start -14.3, Statin myotox sup -7.4 and Cneo AK release -3.5.
`C[C@H](CO)N1C[C@H](C)[C@@H](CN(C)CC2CCCCC2)Oc2c(NC(=O)c3ccncc3)cccc2C1=O` gave miR-122 sensor 127.2*[16.7 µM], Yeast UUG start -3.5, Statin myotox sup -18.8 and Cneo AK release -5.0.
C[C@H]1CN([C@@H](C)CO)C(=O)c2cccc(NC(=O)c3ccncc3)c2O[C@@H]1CN(C)CC1CCCCC1 was read as miR-122 sensor 91.1*[16.7 µM], Yeast UUG start -14.1, Statin myotox sup 13.5 and Cneo AK release -8.7.
Cc1ccc(S(=O)(=O)N[C@@H]2CCCN(Cc3ccc(OCCO)cc3)C2)cc1 was read as Yeast UUG start -14.1 and Cneo AK release 4.7.
Screening Cc1ccc(S(=O)(=O)N[C@@H]2CCCN(Cc3cccc(OCCO)c3)C2)cc1 returned Yeast UUG start 15.3 and Cneo AK release 85.5*.
C[C@@H]1CN([C@@H](C)CO)C(=O)c2cc(NC(=O)NC3CCCCC3)ccc2O[C@@H](C)CCCCO[C@@H]1CN(C)Cc1ccc(C(F)(F)F)cc1 was read as miR-122 sensor -12.9[16.7 µM], Yeast UUG start 0.2 and Cneo AK release -0.1.
